Measured values as given in PubChem BioAssay AID1242 (PCMD, 2008).
The list shows a part of the results, in another mix than the full data. Some results for these compounds are left out of this collection, so the calls shown say nothing about other tests. Calls of active or inactive are those of the source.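 The calls were made as follows: active = inhibition above 30.3% in the primary screen of four-compound pools, then above 30% when the compound was retested; inconclusive = passed the primary limit but could not be retested; inactive = the rest.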

Assay: clotrimazole potentiators killing C. albicans biofilm, primary screen, 4-compound mixtures (AID 1242);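 also: compounds exposed to preformed 24 h biofilms for 48 h; 0% = untreated biofilm control and 100% = clotrimazole plus chlorhexidine kill blank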
Conditions: C. albicans biofilm persisters + clotrimazole, fluorescence viability; primary screen in compound mixtures of four per well; at 7.6 µM; hits give high values
Method in brief: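 Test system: C. albicans biofilms. Buffer or medium: RPMI/MOPS medium, pH 7.0. Timing: 48 h compound exposure at 37 °C. Technique: Alamar Blue fluorescence. Evaluation: percent inhibition of biofilm viability.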

SMILES	inhibition
COc1cccc(C(=O)NCC2(N3CCCCC3)CCCCC2)c1	inactive: 10.2%
COc1ccc(Br)c(C(=O)NCC2(N3CCCCC3)CCCCC2)c1	inactive: 10.1%
O=C(NCC1(N2CCCCC2)CCCCC1)c1cc([N+](=O)[O-])ccc1Cl	inactive: 6.95%
CCN(CC)CC(C)C(C)OC(=O)C(O)(c1ccccc1)c1ccccc1 (stereo not drawn)	inactive: 19.6%
Cc1ccccc1C(=O)NCC1(N2CCCCC2)CCCCC1	inactive: 13.5%
CN(C)C1CCCC1OC(=O)C(O)(c1ccccc1)c1ccccc1 (stereo not drawn)	inactive: 9.03%
C=CCN1CCN(CCOC(=O)C(O)(c2ccccc2)c2ccccc2)CC1	inactive: 18.9%
CCN1CCCC(OC(=O)C2(O)c3ccccc3C=Cc3ccccc32)C1 (stereo not drawn)	inactive: -10.7%
